Permeability data for macrocyclic peptides

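Lipid, pH, incubation time, direction and concentration are not recorded in the data file. Other peptides of the study may be missing here. Peptides that the database sets to -10, its floor, are left out.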

PAMPA is the parallel artificial membrane permeability assay, which has no cells and reads passive diffusion. RRCK values come from monolayers of low-efflux MDCK cells. EPSA is the experimental polar surface area, a chromatographic measure of exposed polarity. P is given in units of 10^-6 cm/s (from log10 values with two decimals); larger means faster passage. Entries marked < or ≤ lay at or below the stated limit. "n/a" marks a cell with nothing listed here.

SMILES | PAMPA (10^-6 cm/s) | RRCK (10^-6 cm/s) | EPSA (Å2)
CCCC[C@@H]1NC(=O)[C@H](CCCC)N(C)C(=O)[C@H](Cc2ccccc2)N(C)C(=O)CSC[C@@H](C(=O)NC)NC(=O)[C@@H]2CCCN2C(=O)[C@H](CCCC)N(C)C1=O | 3.2 | n/a | n/a
CCCC[C@@H]1NC(=O)[C@H](CCCC)N(C)C(=O)[C@H](CCCC)NC(=O)[C@H](CCCC)N(C)C(=O)[C@H]([C@@H](C)O)NC(=O)[C@@H](Cc2ccccc2)N(C)C(=O)CSC[C@@H](C(=O)NC)NC(=O)[C@H](Cc2ccccc2)NC1=O | n/a | < 0.35 | 86
CCCC[C@@H]1NC(=O)[C@H](Cc2ccccc2)NC(=O)CSC[C@@H](C(=O)NC)NC(=O)[C@H](CCCC)N(C)C(=O)[C@H](CCCC)NC(=O)[C@H](CCCC)N(C)C1=O | 50 | 3.9 | 74
CCCC[C@@H]1NC(=O)[C@H](CCCC)NC(=O)[C@@H]2CCCN2C(=O)[C@H](CCCC)NC(=O)[C@H](Cc2ccccc2)NC(=O)CSC[C@@H](C(=O)NC)NC1=O | 1.6 | 0.6 | 96
CCCC[C@@H]1NC(=O)[C@@H](Cc2ccccc2)NC(=O)CSC[C@@H](C(=O)NC)NC(=O)[C@H](CCCC)NC(=O)[C@@H]2CCCN2C(=O)[C@H](CCCC)NC1=O | 1.6 | n/a | n/a
CCCC[C@@H]1NC(=O)[C@H](CCCC)N(C)C(=O)[C@H](CCCC)N(C)C(=O)[C@@H](Cc2ccccc2)NC(=O)CSC[C@@H](C(=O)NC)NC(=O)[C@H](CCCC)N(C)C1=O | 7.9 | n/a | n/a
CCCC[C@@H]1NC(=O)[C@H](CCCC)N(C)C(=O)[C@H](CCCC)NC(=O)[C@H](CCCC)N(C)C(=O)[C@H](CCCC)NC(=O)[C@@H](Cc2ccccc2)N(C)C(=O)CSC[C@@H](C(=O)NC)NC(=O)[C@H](Cc2ccccc2)NC1=O | n/a | < 0.35 | 85
CCCC[C@@H]1NC(=O)[C@H](CCCC)NC(=O)[C@@H](Cc2ccccc2)NC(=O)CSC[C@@H](C(=O)NC)NC(=O)[C@@H]2CCCN2C(=O)[C@H](CCCC)NC1=O | < 0.2 | n/a | n/a
CCCC[C@@H]1NC(=O)[C@H](CCCC)NC(=O)[C@H](CCCC)N(C)C(=O)[C@H](CCCC)NC(=O)[C@H](CCCC)N(C)C(=O)[C@H](CCCC)NC(=O)[C@@H](Cc2ccccc2)N(C)C(=O)CSC[C@@H](C(=O)NC)NC1=O | n/a | < 0.35 | 73
CCCC[C@@H]1NC(=O)[C@H](Cc2ccccc2)N(C)C(=O)CSC[C@@H](C(=O)NC)N(C)C(=O)[C@H](CCCC)NC(=O)[C@H](CCCC)N(C)C(=O)[C@H](CCCC)NC1=O | 50 | 7.9 | 69
CCCC[C@@H]1NC(=O)[C@H](CCCC)N(C)C(=O)[C@@H]2CCCN2C(=O)[C@H](CCCC)NC(=O)[C@H](Cc2ccccc2)N(C)C(=O)CSC[C@@H](C(=O)NC)N(C)C1=O | 32 | 6.3 | 66
CCCC[C@@H]1NC(=O)[C@H](CCCC)NC(=O)[C@H](CCCC)NC(=O)[C@@H]2CCCN2C(=O)[C@H](CCCC)NC(=O)[C@H](Cc2ccccc2)NC(=O)CSC[C@@H](C(=O)NC)NC1=O | 0.63 | 0.2 | 91
CCCC[C@@H]1NC(=O)[C@H](CCCC)NC(=O)[C@H](CCCC)N(C)C(=O)[C@@H](Cc2ccccc2)NC(=O)CSC[C@@H](C(=O)NC)N(C)C(=O)[C@H](CCCC)NC1=O | < 1 | n/a | n/a
CCCC[C@@H]1NC(=O)[C@H](CCCC)N(C)C(=O)[C@@H]2CCCN2C(=O)[C@H](CCCC)N(C)C(=O)[C@H](Cc2ccccc2)NC(=O)CSC[C@@H](C(=O)NC)NC(=O)[C@H](CCCC)N(C)C1=O | 100 | n/a | 69
CCCC[C@@H]1NC(=O)[C@H](Cc2ccccc2)NC(=O)CSC[C@@H](C(=O)NC)NC(=O)[C@H](CCCC)NC(=O)[C@H](CCCC)NC(=O)[C@H](CCCC)NC1=O | < 1.3 | 0.6 | 105
CCCC[C@@H]1NC(=O)[C@H](CCCC)N(C)C(=O)[C@H](Cc2ccccc2)N(C)C(=O)CSC[C@@H](C(=O)NC)NC(=O)[C@H](CCCC)N(C)C(=O)[C@@H]2CCCN2C1=O | 32 | n/a | n/a
CCCC[C@@H]1NC(=O)[C@H](CCCC)NC(=O)[C@H](CCCC)NC(=O)[C@H](CCCC)N(C)C(=O)[C@@H](Cc2ccccc2)NC(=O)CSC[C@@H](C(=O)NC)NC1=O | 7.9 | n/a | n/a
CCCC[C@@H]1NC(=O)[C@H](Cc2ccccc2)N(C)C(=O)[C@@H]2CCCN2C(=O)[C@H](CCCC)N(C)C(=O)[C@H](Cc2ccccc2)NC(=O)CSC[C@@H](C(=O)NC)NC(=O)[C@H](CCCC)N(C)C1=O | 40 | n/a | 81
CCCC[C@@H]1NC(=O)[C@H](CCCC)NC(=O)[C@H](CCCC)NC(=O)[C@H](CCCC)NC(=O)[C@@H](Cc2ccccc2)NC(=O)CSC[C@@H](C(=O)NC)NC1=O | < 1 | 0.4 | 107
CCCC[C@@H]1NC(=O)[C@H](Cc2ccccc2)NC(=O)CSC[C@@H](C(=O)NC)NC(=O)[C@@H]2CCCN2C(=O)[C@H](CCCC)NC(=O)[C@H](CCCC)NC1=O | < 0.2 | n/a | n/a
CCCC[C@@H]1NC(=O)[C@H](CCCC)N(C)C(=O)[C@@H](Cc2ccccc2)NC(=O)CSC[C@@H](C(=O)NC)NC(=O)[C@H](CCCC)N(C)C(=O)[C@@H]2CCCN2C1=O | 25 | n/a | n/a
CCCC[C@@H]1NC(=O)[C@H](CCCC)NC(=O)[C@H](CCCC)N(C)C(=O)[C@@H]2CCCN2C(=O)[C@H](CCCC)N(C)C(=O)[C@H](Cc2ccccc2)NC(=O)CSC[C@@H](C(=O)NC)NC1=O | 5 | n/a | 77
CCCC[C@@H]1NC(=O)[C@@H](Cc2ccccc2)NC(=O)CSC[C@@H](C(=O)NC)NC(=O)[C@@H]2CCCN2C(=O)[C@H](CCCC)N(C)C(=O)[C@H](CCCC)NC1=O | < 2.5 | n/a | n/a
CCCC[C@@H]1NC(=O)[C@H](CCCC)N(C)C(=O)[C@H](CCCC)NC(=O)[C@H](CCCC)N(C)C(=O)[C@@H](Cc2ccccc2)NC(=O)CSC[C@@H](C(=O)NC)NC1=O | 25 | 1.5 | 75
CCCC[C@@H]1NC(=O)[C@H](CCCC)N(C)C(=O)[C@H](CCCC)N(C)C(=O)[C@H](CCCC)N(C)C(=O)[C@H](CCCC)NC(=O)[C@H](CCCC)N(C)C(=O)[C@H](Cc2ccccc2)NC(=O)CSC[C@@H](C(=O)NC)NC1=O | n/a | < 0.35 | n/a
CCCC[C@@H]1NC(=O)[C@H](CCCC)NC(=O)[C@H](CCCC)N(C)C(=O)[C@H](CCCC)NC(=O)[C@@H](Cc2ccccc2)NC(=O)CSC[C@@H](C(=O)NC)NC1=O | < 2 | n/a | n/a
CCCC[C@@H]1NC(=O)[C@H](Cc2ccccc2)NC(=O)CSC[C@@H](C(=O)NC)NC(=O)[C@H](CCCC)NC(=O)[C@@H]2CCCN2C(=O)[C@H](CCCC)NC1=O | 1.3 | n/a | n/a

Extract of 4 entries:

SMILES	PAMPA (10^-6 cm/s)	RRCK (10^-6 cm/s)	EPSA (Å2)
CCCC[C@@H]1NC(=O)[C@H](CCCC)NC(=O)[C@H](CCCC)N(C)C(=O)[C@@H](Cc2ccccc2)NC(=O)CSC[C@@H](C(=O)NC)N(C)C(=O)[C@H](CCCC)NC1=O	< 1	n/a	n/a
CCCC[C@@H]1NC(=O)[C@H](CCCC)NC(=O)[C@@H]2CCCN2C(=O)[C@H](CCCC)NC(=O)[C@H](Cc2ccccc2)NC(=O)CSC[C@@H](C(=O)NC)NC1=O	1.6	0.6	96
CCCC[C@@H]1NC(=O)[C@H](Cc2ccccc2)N(C)C(=O)CSC[C@@H](C(=O)NC)N(C)C(=O)[C@H](CCCC)NC(=O)[C@H](CCCC)N(C)C(=O)[C@H](CCCC)NC1=O	50	7.9	69
CCCC[C@@H]1NC(=O)[C@H](CCCC)N(C)C(=O)[C@H](CCCC)N(C)C(=O)[C@H](CCCC)N(C)C(=O)[C@H](CCCC)NC(=O)[C@H](CCCC)N(C)C(=O)[C@H](Cc2ccccc2)NC(=O)CSC[C@@H](C(=O)NC)NC1=O	n/a	< 0.35	n/a

Source: CycPeptMPDB (Li et al. 2023), which took these values from Golosov et al. 2021, doi:10.1021/acs.jmedchem.0c01505.